What all share (assay): saturation radioligand binding, membranes
Assay [1] concerns the target T1, M1R-CFP (M1R-Cerulean) (Mus musculus, UniProt P12657).
T1 sequence (P12657 1-460): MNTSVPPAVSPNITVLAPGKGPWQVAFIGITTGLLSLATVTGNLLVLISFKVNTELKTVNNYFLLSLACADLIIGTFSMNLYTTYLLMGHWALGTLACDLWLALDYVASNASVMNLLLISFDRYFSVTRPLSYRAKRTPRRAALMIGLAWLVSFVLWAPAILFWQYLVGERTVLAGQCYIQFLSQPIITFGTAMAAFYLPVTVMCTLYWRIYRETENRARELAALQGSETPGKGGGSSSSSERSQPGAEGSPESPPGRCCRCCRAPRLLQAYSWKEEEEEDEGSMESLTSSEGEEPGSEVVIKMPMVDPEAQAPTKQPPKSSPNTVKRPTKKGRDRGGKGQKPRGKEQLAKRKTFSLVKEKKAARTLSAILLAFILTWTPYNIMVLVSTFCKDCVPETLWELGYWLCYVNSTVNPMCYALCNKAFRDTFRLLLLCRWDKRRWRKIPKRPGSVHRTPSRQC

The target of assay [2] is T2, wild-type M1R (M1 muscarinic receptor) (Mus musculus, UniProt P12657).
T2 sequence (P12657 1-460): T1 sequence (P12657 1-460)

Assay [3] has as its target T3, M1R-YFP-CFP (M1R-EYFP-Cerulean) (Mus musculus, UniProt P12657, DEL224-357).
T3 sequence (P12657 1-223): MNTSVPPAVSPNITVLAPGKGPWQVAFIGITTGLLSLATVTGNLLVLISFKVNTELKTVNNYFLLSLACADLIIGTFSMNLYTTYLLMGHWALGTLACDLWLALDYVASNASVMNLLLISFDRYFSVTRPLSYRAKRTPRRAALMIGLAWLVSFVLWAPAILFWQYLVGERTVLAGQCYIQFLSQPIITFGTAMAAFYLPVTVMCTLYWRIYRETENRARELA
T3 sequence (P12657 358-460): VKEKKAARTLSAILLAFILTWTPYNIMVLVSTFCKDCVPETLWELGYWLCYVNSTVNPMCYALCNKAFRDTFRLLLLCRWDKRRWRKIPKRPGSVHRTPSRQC

What is called Kd is the concentration at which binding is half-saturated.

In the case of `C[N+]1(C)[C@@H]2C[C@@H](OC(=O)[C@H](CO)c3ccccc3)C[C@H]1[C@@H]1O[C@@H]12` [3H-NMS], the dissociation constant Kd is 0.94 ± 0.4 nM in assay [1], 0.74 ± 0.58 nM in assay [2] and 0.76 ± 0.51 nM in assay [3].
